Measured values taken from patent publication US20060062747A1, “Use of sweetener acids for the microbiological stabilization of foodstuffs, cosmetic products, consumer goods and pharmaceutical productions” (Nutrinova Nutrition Specialties & Food Ingredients GmbH, priority 2002, published 2006).

Assay: pH of the test solutions and drinks
Conditions: Example 2; identical acid taste solutions (Table 5)

O=S(=O)(O)NC1CCCCC1 [Cyclamic acid, N-cyclohexylsulfaminic acid]
pH: 3.08
